## Permeability data for macrocyclic peptides

Source: CycPeptMPDB (Li et al. 2023), which took these values from Kelly et al. 2021, doi:10.1021/jacs.0c06115.

PAMPA is the parallel artificial membrane permeability assay, which has no cells and reads passive diffusion. Values are log10 P with P in cm/s, so -5 is more permeable than -7.

PAMPA (log10 cm/s)	compound
-7.20	CC(=O)N1CCC[C@H]1C(=O)N(C)[C@@H](CC(C)C)C(=O)N[C@@H]1C(=O)N[C@@H](CC(C)C)C(=O)N[C@H](CC(C)C)C(=O)N[C@H](CC(C)C)C(=O)N[C@H](C)C(=O)N[C@H](CC(C)C)C(=O)N2CCC[C@@H]2C(=O)O[C@@H]1C
-5.25	CC(=O)N1CCC[C@H]1C(=O)N(C)[C@@H](CC(C)C)C(=O)N[C@@H]1C(=O)N(C)[C@@H](CC(C)C)C(=O)N[C@@H](CC(C)C)C(=O)N[C@H](CC(C)C)C(=O)N(C)[C@@H](C)C(=O)N[C@@H](CC(C)C)C(=O)N2CCC[C@H]2C(=O)O[C@@H]1C
-5.61	CC(=O)N1CCC[C@H]1C(=O)N(C)[C@@H](CC(C)C)C(=O)N[C@@H]1C(=O)N(C)[C@@H](CC(C)C)C(=O)N(C)[C@H](CC(C)C)C(=O)N(C)[C@H](CC(C)C)C(=O)N(C)[C@@H](C)C(=O)N[C@@H](CC(C)C)C(=O)N2CCC[C@H]2C(=O)O[C@@H]1C
-5.13	CC(=O)N1CCC[C@H]1C(=O)N(C)[C@H](CC(C)C)C(=O)N[C@@H]1C(=O)N(C)[C@@H](CC(C)C)C(=O)N[C@@H](CC(C)C)C(=O)N(C)[C@H](CC(C)C)C(=O)N(C)[C@H](C)C(=O)N[C@@H](CC(C)C)C(=O)N2CCC[C@H]2C(=O)O[C@@H]1C
-7.16	CC(=O)N1CCC[C@@H]1C(=O)N(C)[C@H](CC(C)C)C(=O)N[C@@H]1C(=O)N[C@@H](CC(C)C)C(=O)N[C@H](CC(C)C)C(=O)N[C@H](CC(C)C)C(=O)N[C@@H](C)C(=O)N[C@H](CC(C)C)C(=O)N2CCC[C@@H]2C(=O)O[C@@H]1C
-5.46	CC(=O)N1CCC[C@@H]1C(=O)N(C)[C@@H](CC(C)C)C(=O)N[C@@H]1C(=O)N(C)[C@@H](CC(C)C)C(=O)N(C)[C@H](CC(C)C)C(=O)N(C)[C@@H](CC(C)C)C(=O)N(C)[C@H](C)C(=O)N[C@H](CC(C)C)C(=O)N2CCC[C@H]2C(=O)O[C@@H]1C
-5.31	CC(=O)N1CCC[C@H]1C(=O)N(C)[C@H](CC(C)C)C(=O)N[C@@H]1C(=O)N(C)[C@@H](CC(C)C)C(=O)N(C)[C@H](CC(C)C)C(=O)N(C)[C@@H](CC(C)C)C(=O)N(C)[C@H](C)C(=O)N[C@@H](CC(C)C)C(=O)N2CCC[C@H]2C(=O)O[C@@H]1C
-6.92	CC(=O)N1CCC[C@@H]1C(=O)N(C)[C@@H](CC(C)C)C(=O)N[C@@H]1C(=O)N[C@@H](CC(C)C)C(=O)N[C@@H](CC(C)C)C(=O)N[C@@H](CC(C)C)C(=O)N[C@@H](C)C(=O)N[C@@H](CC(C)C)C(=O)N2CCC[C@@H]2C(=O)O[C@@H]1C
-5.15	CC(=O)N1CCC[C@H]1C(=O)N(C)[C@H](CC(C)C)C(=O)N[C@@H]1C(=O)N[C@H](CC(C)C)C(=O)N[C@@H](CC(C)C)C(=O)N(C)[C@@H](CC(C)C)C(=O)N(C)[C@H](C)C(=O)N[C@@H](CC(C)C)C(=O)N2CCC[C@H]2C(=O)O[C@@H]1C
-5.53	CC(=O)N1CCC[C@H]1C(=O)N(C)[C@H](CC(C)C)C(=O)N[C@@H]1C(=O)N(C)[C@@H](CC(C)C)C(=O)N[C@@H](CC(C)C)C(=O)N(C)[C@@H](CC(C)C)C(=O)N(C)[C@@H](C)C(=O)N[C@H](CC(C)C)C(=O)N2CCC[C@@H]2C(=O)O[C@@H]1C
-5.22	CC(=O)N1CCC[C@H]1C(=O)N(C)[C@@H](CC(C)C)C(=O)N[C@@H]1C(=O)N[C@H](CC(C)C)C(=O)N(C)[C@@H](CC(C)C)C(=O)N(C)[C@H](CC(C)C)C(=O)N[C@@H](C)C(=O)N[C@@H](CC(C)C)C(=O)N2CCC[C@@H]2C(=O)O[C@@H]1C
-5.59	CC(=O)N1CCC[C@@H]1C(=O)N(C)[C@H](CC(C)C)C(=O)N[C@@H]1C(=O)N[C@H](CC(C)C)C(=O)N(C)[C@H](CC(C)C)C(=O)N(C)[C@@H](CC(C)C)C(=O)N(C)[C@@H](C)C(=O)N[C@@H](CC(C)C)C(=O)N2CCC[C@H]2C(=O)O[C@@H]1C
-6.34	CC(=O)N1CCC[C@@H]1C(=O)N(C)[C@H](CC(C)C)C(=O)N[C@@H]1C(=O)N[C@@H](CC(C)C)C(=O)N(C)[C@H](CC(C)C)C(=O)N(C)[C@@H](CC(C)C)C(=O)N[C@@H](C)C(=O)N[C@@H](CC(C)C)C(=O)N2CCC[C@H]2C(=O)O[C@@H]1C
-5.28	CC(=O)N1CCC[C@H]1C(=O)N(C)[C@@H](CC(C)C)C(=O)N[C@@H]1C(=O)N(C)[C@H](CC(C)C)C(=O)N[C@@H](CC(C)C)C(=O)N(C)[C@H](CC(C)C)C(=O)N(C)[C@H](C)C(=O)N[C@@H](CC(C)C)C(=O)N2CCC[C@H]2C(=O)O[C@@H]1C
-6.26	CC(=O)N1CCC[C@H]1C(=O)N(C)[C@@H](CC(C)C)C(=O)N[C@@H]1C(=O)N[C@@H](CC(C)C)C(=O)N(C)[C@@H](CC(C)C)C(=O)N(C)[C@H](CC(C)C)C(=O)N(C)[C@@H](C)C(=O)N[C@H](CC(C)C)C(=O)N2CCC[C@H]2C(=O)O[C@@H]1C
-6.85	CC(=O)N1CCC[C@H]1C(=O)N(C)[C@@H](CC(C)C)C(=O)N[C@@H]1C(=O)N[C@H](CC(C)C)C(=O)N[C@H](CC(C)C)C(=O)N(C)[C@H](CC(C)C)C(=O)N[C@H](C)C(=O)N[C@H](CC(C)C)C(=O)N2CCC[C@@H]2C(=O)O[C@@H]1C
-5.93	CC(=O)N1CCC[C@H]1C(=O)N(C)[C@H](CC(C)C)C(=O)N[C@@H]1C(=O)N[C@H](CC(C)C)C(=O)N[C@@H](CC(C)C)C(=O)N(C)[C@H](CC(C)C)C(=O)N[C@@H](C)C(=O)N[C@H](CC(C)C)C(=O)N2CCC[C@@H]2C(=O)O[C@@H]1C
-6.98	CC(=O)N1CCC[C@H]1C(=O)N(C)[C@H](CC(C)C)C(=O)N[C@@H]1C(=O)N[C@@H](CC(C)C)C(=O)N[C@H](CC(C)C)C(=O)N(C)[C@H](CC(C)C)C(=O)N[C@@H](C)C(=O)N[C@H](CC(C)C)C(=O)N2CCC[C@@H]2C(=O)O[C@@H]1C
-5.85	CC(=O)N1CCC[C@@H]1C(=O)N(C)[C@@H](CC(C)C)C(=O)N[C@@H]1C(=O)N(C)[C@@H](CC(C)C)C(=O)N[C@@H](CC(C)C)C(=O)N(C)[C@@H](CC(C)C)C(=O)N[C@@H](C)C(=O)N[C@@H](CC(C)C)C(=O)N2CCC[C@@H]2C(=O)O[C@@H]1C

2 of these entries, quoted again:

compound	PAMPA (log10 cm/s)
CC(=O)N1CCC[C@@H]1C(=O)N(C)[C@H](CC(C)C)C(=O)N[C@@H]1C(=O)N[C@@H](CC(C)C)C(=O)N(C)[C@H](CC(C)C)C(=O)N(C)[C@@H](CC(C)C)C(=O)N[C@@H](C)C(=O)N[C@@H](CC(C)C)C(=O)N2CCC[C@H]2C(=O)O[C@@H]1C	-6.34
CC(=O)N1CCC[C@H]1C(=O)N(C)[C@@H](CC(C)C)C(=O)N[C@@H]1C(=O)N(C)[C@@H](CC(C)C)C(=O)N[C@@H](CC(C)C)C(=O)N[C@H](CC(C)C)C(=O)N(C)[C@@H](C)C(=O)N[C@@H](CC(C)C)C(=O)N2CCC[C@H]2C(=O)O[C@@H]1C	-5.25

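Conditions beyond the assay type are not listed; see the original paper. Other peptides of the study may be missing here. Peptides that the database sets to -10, its floor, are left out.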